{"sequences": {"note": "Chains of the proteins cited; added tags and fusions are not shown. Residues count along the entry.", "UniProt P35968, 20-1356": "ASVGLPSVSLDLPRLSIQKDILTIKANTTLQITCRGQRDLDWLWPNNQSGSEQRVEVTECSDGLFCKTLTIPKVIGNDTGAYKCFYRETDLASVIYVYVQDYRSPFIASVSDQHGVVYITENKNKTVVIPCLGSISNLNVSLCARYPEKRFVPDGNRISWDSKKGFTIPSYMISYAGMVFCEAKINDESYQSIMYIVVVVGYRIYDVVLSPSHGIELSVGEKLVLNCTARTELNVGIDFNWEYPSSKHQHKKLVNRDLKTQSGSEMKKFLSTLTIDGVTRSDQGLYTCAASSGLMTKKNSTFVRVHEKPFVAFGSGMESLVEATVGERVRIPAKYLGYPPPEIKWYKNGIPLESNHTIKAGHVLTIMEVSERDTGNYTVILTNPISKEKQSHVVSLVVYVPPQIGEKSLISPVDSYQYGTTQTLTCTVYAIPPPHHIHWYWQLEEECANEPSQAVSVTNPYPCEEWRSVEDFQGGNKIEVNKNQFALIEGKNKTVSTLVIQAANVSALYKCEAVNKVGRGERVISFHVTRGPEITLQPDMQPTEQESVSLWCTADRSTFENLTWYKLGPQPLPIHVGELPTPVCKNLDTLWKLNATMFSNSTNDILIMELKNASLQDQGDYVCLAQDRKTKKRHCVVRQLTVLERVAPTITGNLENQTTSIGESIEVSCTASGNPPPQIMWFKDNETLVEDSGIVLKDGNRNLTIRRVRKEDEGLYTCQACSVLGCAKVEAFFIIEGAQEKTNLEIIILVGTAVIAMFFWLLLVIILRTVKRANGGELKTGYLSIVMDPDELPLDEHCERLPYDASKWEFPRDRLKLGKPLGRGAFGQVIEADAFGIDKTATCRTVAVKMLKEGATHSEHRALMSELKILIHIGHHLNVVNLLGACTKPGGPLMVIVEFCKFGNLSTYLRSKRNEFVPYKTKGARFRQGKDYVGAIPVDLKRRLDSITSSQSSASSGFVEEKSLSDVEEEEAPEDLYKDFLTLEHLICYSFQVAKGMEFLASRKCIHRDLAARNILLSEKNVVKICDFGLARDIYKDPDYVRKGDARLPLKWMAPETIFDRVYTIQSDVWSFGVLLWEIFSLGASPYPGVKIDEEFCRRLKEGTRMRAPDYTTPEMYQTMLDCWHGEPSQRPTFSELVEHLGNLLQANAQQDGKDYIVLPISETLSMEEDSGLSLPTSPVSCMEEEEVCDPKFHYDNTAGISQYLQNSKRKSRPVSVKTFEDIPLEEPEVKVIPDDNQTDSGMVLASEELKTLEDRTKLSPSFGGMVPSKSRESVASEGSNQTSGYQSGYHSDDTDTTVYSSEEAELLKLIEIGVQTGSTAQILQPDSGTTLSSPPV"}, "source": "patent US20040210041A1", "binders": {"B1": {"name": "P12-F-XB (neutravidin HRP complex) (peptide)", "peptide": "AGPTWCEDDWYYCWLFGTK", "modifications": "Ac-; J (8-amino-3,6-dioxaoctanoyl) between Thr18 and the C-terminal Lys; Lys(Biotin-JJ)-NH2"}, "B2": {"name": "P5-XB/neutravidin HRP complex (tetrameric) (peptide)", "peptide": "AGPKWCEEDWYYCMITGTGGGK", "modifications": "here or on the partner: Ac-; C-terminal Lys(Biotin-JJ)-NH2; disulfide"}}, "key": {"[1]": {"biological_target": "KDR (VEGFR-2), full-length receptor on cells (human) (UniProt P35968)", "assay": "saturation binding, peptide/neutravidin-HRP complex on KDR-transfected 293H cells"}, "[2]": {"biological_target": "KDR (VEGFR-2), full-length receptor on cells (human), P35968", "assay": "saturation binding, peptide/neutravidin-HRP complex on KDR-transfected 293H cells, mock subtracted", "settings": "remark: other sources report otherwise"}}, "data": [{"binder": "B1", "values": [{"measurement": "Kd", "setting": "[1]", "value": 3.02, "unit": "nM"}]}, {"binder": "B2", "values": [{"measurement": "Kd", "setting": "[2]", "value": 14.9, "unit": "nM"}]}]}
